Laboratory results as given in publication PMC10503797, “Allosteric modulator potentiates β2AR agonist–promoted bronchoprotection in asthma models” (The Journal of Clinical Investigation, 2023).
Values joined by “and” are separate entries in the source; they are usually repeats but may differ in a detail not shown here. Identical values can stand only once.

Tests used:
human lung slices = test: Methacholine-induced airway constriction in human lung slices; format: cell-based; settings: for MCh-induced airway constriction response (Figure 7): donor 1-4
guinea pig lung slices = test: Methacholine-induced airway constriction in guinea pig lung slices; format: cell-based; settings: for MCh-induced airway constriction response (Figure 5D): Exp1-6
[1] = system: lung slices obtained from ovalbumin-sensitized guinea pigs; test: Ovalbumin-induced airway constriction in lung slices from ovalbumin-sensitized guinea pigs; format: cell-based, guinea pig; settings: Exp1-5
[2] = 10 µM Fenoterol, -Log [MCh] 7.5

## CC(Cc1ccc(O)cc1)NCC(O)c1cc(O)cc(O)c1 (stereo not drawn) [Fenoterol, fenoterol]
Human lung slices; 1 µM Fenoterol, -Log [MCh] 8.5
  MCh-induced airway constriction response (Figure 7): 101.6
Human lung slices; [2]
  MCh-induced airway constriction response (Figure 7): 101.6
Human lung slices; Homo sapiens, read-out: MCh pD2, 1 μM Fenoterol (converted)
  EC50: 102 nM
Guinea pig lung slices; 1 µM Fenoterol, -Log [MCh] 7
  airway area in MCh concentration-response (Figure 5A/5C): 102.1
Guinea pig lung slices; 1 µM Fenoterol, -Log [MCh] 7.5
  airway area in MCh concentration-response (Figure 5A/5C): 108.4 and 102.4
Guinea pig lung slices; 1 µM Fenoterol, -Log [MCh] 8
  airway area in MCh concentration-response (Figure 5A/5C): 101.6 and 107.2
Guinea pig lung slices; 10 µM Fenoterol, -Log [MCh] 7
  airway area in MCh concentration-response (Figure 5A/5C): 102.0
  MCh-induced airway constriction response (Figure 5D): 102.0
Guinea pig lung slices; [2]
  airway area in MCh concentration-response (Figure 5A/5C): 104.2 and 107.5
  MCh-induced airway constriction response (Figure 5D): 104.2 and 107.5
Guinea pig lung slices; 10 µM Fenoterol, -Log [MCh] 8
  airway area in MCh concentration-response (Figure 5A/5C): 104.3 and 106.6 and 104.5
  MCh-induced airway constriction response (Figure 5D): 104.3 and 106.6 and 104.5
Guinea pig lung slices; 100 µM Fenoterol, -Log [MCh] 6.5
  MCh-induced airway constriction response (Figure 5D): 102.2
Guinea pig lung slices; 100 µM Fenoterol, -Log [MCh] 7
  MCh-induced airway constriction response (Figure 5D): 106.9
Guinea pig lung slices; 100 µM Fenoterol, -Log [MCh] 7.5
  MCh-induced airway constriction response (Figure 5D): 101.5 and 103.6
Guinea pig lung slices; 100 µM Fenoterol, -Log [MCh] 8
  MCh-induced airway constriction response (Figure 5D): 108.1 and 107.5
[1]; 0.1 µM Fenoterol, [OVA] 0.001 ng/ml
  OVA-induced airway constriction response (Figure 6): 104.3
[1]; 0.1 µM Fenoterol, [OVA] 0.1 ng/ml
  OVA-induced airway constriction response (Figure 6): 107.0 and 102.5
[1]; 0.1 µM Fenoterol, [OVA] 10 ng/ml
  OVA-induced airway constriction response (Figure 6): 101.7
[1]; 1 µM Fenoterol, [OVA] 0.001 ng/ml
  OVA-induced airway constriction response (Figure 6): 102.1
[1]; 1 µM Fenoterol, [OVA] 0.01 ng/ml
  OVA-induced airway constriction response (Figure 6): 101.8
[1]; 1 µM Fenoterol, [OVA] 0.1 ng/ml
  OVA-induced airway constriction response (Figure 6): 103.7
[1]; 1 µM Fenoterol, [OVA] 1000 ng/ml
  OVA-induced airway constriction response (Figure 6): 108.3
[1]; 1 µM Fenoterol, [OVA] 1000000 ng/ml
  OVA-induced airway constriction response (Figure 6): 104.4
